Molecular target: URAT1 (SLC22A12) (Homo sapiens (Human), UniProt Q96S37)
Assay: URAT1 (SLC22A12) cellular uptake assay, 3H-orotate transport in stably transfected URAT-1/CHO cells

Protein sequences, listed by entry. Tags and fused reporters are not part of them. Lines headed by an entry give the natural chain unless they say otherwise; changes in a name come on top.
UniProt Q96S37: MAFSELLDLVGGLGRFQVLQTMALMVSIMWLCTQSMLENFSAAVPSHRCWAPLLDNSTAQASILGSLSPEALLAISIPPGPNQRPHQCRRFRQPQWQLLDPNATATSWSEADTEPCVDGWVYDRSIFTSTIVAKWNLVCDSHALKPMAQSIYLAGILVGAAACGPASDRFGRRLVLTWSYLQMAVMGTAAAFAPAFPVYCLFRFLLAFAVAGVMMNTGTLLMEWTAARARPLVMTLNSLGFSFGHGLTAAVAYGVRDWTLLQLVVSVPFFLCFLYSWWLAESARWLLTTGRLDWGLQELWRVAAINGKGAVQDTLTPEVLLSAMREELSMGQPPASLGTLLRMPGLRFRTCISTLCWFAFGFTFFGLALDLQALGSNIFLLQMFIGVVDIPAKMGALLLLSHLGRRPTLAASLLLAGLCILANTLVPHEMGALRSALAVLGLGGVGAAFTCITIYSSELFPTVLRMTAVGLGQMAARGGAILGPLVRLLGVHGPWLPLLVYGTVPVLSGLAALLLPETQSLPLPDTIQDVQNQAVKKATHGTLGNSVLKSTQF

O=C(O)CSc1nnc(Br)n1-c1ccc(C2CC2)c2ccccc12 [Lesinurad, lesinurad, reference compound]
IC50: 18 to 53 µM
